Consider 17 compounds from ChEMBL document CHEMBL4354845, “Discovery and Structure-Activity Relationships of Nociceptin Receptor Partial Agonists That Afford Symptom Ablation in Parkinson's Disease Models” (J Med Chem, 2020).

Protein sequences, listed by entry. Tags and fused reporters are not part of them. Lines headed by an entry give the natural chain unless they say otherwise; changes in a name come on top.
UniProt P41146: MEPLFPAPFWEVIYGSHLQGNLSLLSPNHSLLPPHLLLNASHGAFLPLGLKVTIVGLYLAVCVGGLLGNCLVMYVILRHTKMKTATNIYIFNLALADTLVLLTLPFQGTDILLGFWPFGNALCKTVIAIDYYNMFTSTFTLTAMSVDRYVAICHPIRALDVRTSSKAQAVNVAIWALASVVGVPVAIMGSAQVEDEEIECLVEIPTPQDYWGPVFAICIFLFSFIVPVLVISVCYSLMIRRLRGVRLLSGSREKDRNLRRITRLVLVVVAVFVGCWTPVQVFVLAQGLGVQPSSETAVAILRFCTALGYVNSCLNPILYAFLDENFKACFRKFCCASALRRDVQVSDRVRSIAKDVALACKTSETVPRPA
UniProt P35372, whole entry, looked up: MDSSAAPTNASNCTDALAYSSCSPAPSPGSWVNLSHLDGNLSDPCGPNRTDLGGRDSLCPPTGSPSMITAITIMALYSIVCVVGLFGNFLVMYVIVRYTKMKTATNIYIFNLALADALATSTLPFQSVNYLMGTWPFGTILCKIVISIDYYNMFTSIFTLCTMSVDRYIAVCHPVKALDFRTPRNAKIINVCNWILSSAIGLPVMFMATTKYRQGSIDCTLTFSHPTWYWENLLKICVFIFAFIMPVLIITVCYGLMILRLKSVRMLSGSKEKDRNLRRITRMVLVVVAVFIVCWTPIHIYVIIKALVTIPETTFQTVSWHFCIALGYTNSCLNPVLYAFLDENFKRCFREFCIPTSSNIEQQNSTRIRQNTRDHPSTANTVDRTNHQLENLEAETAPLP

Experiment [1] has as its target Nociceptin receptor (Homo sapiens) (UniProt P41146). The experiment is described as follows: Agonist activity at human NOP expressed in CHO cell membrane incubated for 60 mins by [35S]GTPgammaS binding assay relative to N/OFQ. (GTPγS is a poorly hydrolysed GTP analogue; its binding reports G protein activation.)
In experiment [2] the target is Mu-type opioid receptor (Homo sapiens) (UniProt P35372). The experiment is described as follows: Agonist activity at human MOP expressed in CHO cell membrane incubated for 60 mins by [35S]GTPgammaS binding assay relative to DAMGO.
The species entered for experiment [3] is Homo sapiens. The experiment is described as follows: Selectivity index, ratio of Ki for human MOP expressed in CHO cell membrane to Ki for human NOP expressed in CHO cell membrane.
Experiment [4] is filed under the species Homo sapiens. The experiment is described as follows: Selectivity index, ratio of Ki for human DOP expressed in CHO cell membrane to Ki for human NOP expressed in CHO cell membrane.
For experiment [5], the species on record is Homo sapiens. The experiment is described as follows: Selectivity index, ratio of Ki for human KOP expressed in CHO cell membrane to Ki for human NOP expressed in CHO cell membrane.

A value given as a limit tells only on which side of the number the result lay.

`CC(C)[C@H]1CC[C@@H](N2CCC(n3cc(CNC(=O)CCCCCN)c4ccccc43)CC2)CC1` came in with an Activity in experiment [1] of 37.7%. For `CC(C)[C@H]1CC[C@@H](N2CCC(n3cc(CNC(N)=S)c4ccccc43)CC2)CC1`, the Activity in experiment [1] was determined as 51.2%; in experiment [2], 9.8%. Consider `CC(C)[C@H]1CC[C@@H](N2CCC(n3cc(CCCNC(N)=S)c4ccccc43)CC2)CC1`, for which, in experiment [1], the Activity was determined as 34.5%. Take `CC(C)[C@H]1CC[C@@H](N2CCC(n3ccc4ccccc43)CC2)CC1`: the Ratio Ki in the experiment listed under Homo sapiens [3], in the experiment listed under Homo sapiens [4] and in the experiment listed under Homo sapiens [5] was above 40 in each case. Further, the Activity came to 29.3% in experiment [1] and 16.3% in experiment [2]. `CC(C)[C@H]1CC[C@@H](N2CCC(n3cc(/C=N/O)c4ccccc43)CC2)CC1`: the Ratio Ki in the experiment listed under Homo sapiens [3] was 25. The Activity turned out to be 85.9% in experiment [1] and 37.5% in experiment [2].

`CC(C)[C@H]1CC[C@@H](N2CCC(n3cc(CCNC(N)=S)c4ccccc43)CC2)CC1` displayed an Activity in experiment [1] of 5.6%. Still for that read-out and setting: in the case of `CC(C)[C@H]1CC[C@@H](N2CCC(n3cc(CN4CCC(O)CC4)c4ccccc43)CC2)CC1` it was 10.6%; in that of `CC(C)[C@H]1CC[C@@H](N2CCC(n3cc(CN4CC[C@@H](O)C4)c4ccccc43)CC2)CC1`, 69.9%. In the case of `CC(C)[C@H]1CC[C@@H](N2CCC(n3cc(CN4CCCC4)c4ccccc43)CC2)CC1`, the Ratio Ki in the experiment listed under Homo sapiens [3], in the experiment listed under Homo sapiens [4] and in the experiment filed under Homo sapiens [5] was above 200 throughout. This compound also showed an Activity in experiment [1] of 87.9%. Regarding `CC(C)[C@H]1CC[C@@H](N2CCC(n3cc(CN)c4ccccc43)CC2)CC1`, the Ratio Ki in the experiment listed under Homo sapiens [3] came to 20. Also, the Activity in experiment [1] was 5.7%; in experiment [2] it was 11.8%. `CC(C)[C@H]1CC[C@@H](N2CCC(n3cc(CCCN)c4ccccc43)CC2)CC1`: the Activity was 18.6% in experiment [1] and 15.7% in experiment [2]. For `CCNCC(=O)NCc1cn(C2CCN([C@H]3CC[C@@H](C(C)C)CC3)CC2)c2ccccc12`, in experiment [1], the Activity was 15.9%. Still for that read-out and setting: then `CC(C)[C@H]1CC[C@@H](N2CCC(n3cc(CN4CC(O)C4)c4ccccc43)CC2)CC1`, with 34.3%; and `CC(C)[C@H]1CC[C@@H](N2CCC(n3cc(CCN)c4ccccc43)CC2)CC1.Cl.Cl`, with 27.8%. Compound `CC(C)[C@H]1CC[C@@H](N2CCC(n3cc(CO)c4ccccc43)CC2)CC1` registered an Activity in experiment [1] of 18.9%. For `CC(C)[C@H]1CC[C@@H](N2CCC(n3cc(CN(C)C)c4ccccc43)CC2)CC1`, the Activity in experiment [1] stood at 28.1%. For `CC(C)[C@H]1CC[C@@H](N2CCC(N3CCc4ccccc43)CC2)CC1`, the Ratio Ki in the experiment filed under Homo sapiens [3], in the experiment listed under Homo sapiens [4] and in the experiment listed under Homo sapiens [5] was above 40 each time. The Activity in experiment [1] stood at 33%.
